Patent US5965126A, “use of mutant alkyltransferases for gene therapy to protect from toxicity of therapeutic alkylating agents” (priority 1996, dated 1999)

Key:
wtAGT [1] = target: T1, wtAGT (Homo sapiens, UniProt P16455); test: BG inhibition of AGT in wtMGMT transfected CHO cells; format: cell-based; parameters: expressed in transfected cells; host or cells: K562 (human chronic myelogenous leukemia), retrovirally transduced
T1 sequence (P16455 1-207): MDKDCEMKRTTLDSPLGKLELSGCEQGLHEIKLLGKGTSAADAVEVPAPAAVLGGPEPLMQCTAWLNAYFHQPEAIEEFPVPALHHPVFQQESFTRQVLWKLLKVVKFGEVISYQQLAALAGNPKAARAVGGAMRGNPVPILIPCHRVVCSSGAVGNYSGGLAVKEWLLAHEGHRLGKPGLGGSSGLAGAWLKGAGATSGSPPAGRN

AGT = target: T2, AGT (Homo sapiens, UniProt P16455); test: Inactivation of cellular AGT in CHO cells expressing human AGT (CHO-AGT); format: cell-based; parameters: expressed in transfected cells; host or cells: Chinese hamster ovary (CHO) cells
T2 sequence (P16455 1-207): T1 sequence (P16455 1-207)
Description: (§1) FIG. 3a and FIG. 3b show a loss of AGT activity after exposure to different concentrations of BG (FIG. 3a) and 5-nitroso-BP (FIG. 3b). CHO cells expressing human AGT (.smallcircle.) and its mutants P140A (.circle-solid.) and G156A (.quadrature.) were exposed to BG or 5-nitroso-BP for 4 h. The cells were then harvested and the AGT activity determined.
(§2) AGT activity assays--Extracts were prepared and AGT activity was determined as described by Dolan et al. (Dolan, et al., 1990, Proc. Natl. Acad. Sci. U.S.A. 87: 5368-5372) by incubation for 30 min at 37° C. with a [^3 H]methylated calf thymus DNA substrate prepared by reaction of DNA with N-[^3 H]methyl-N-nitrosourea (Amersham Inc., Arlington Hts., Ill.). The AGT activity of the cells was then expressed as fmol of O^6 -methylguanine removed per mg of protein present in the cell extracts. Protein was determined by the method of Bradford (Bradford, 1976, Anal. Biochem. 72: 248-254). Inactivation of cellular AGT was measured by adding different concentrations of BG or 5-nitroso-BP to cell cultures which had reached about 80% confluence. After 4 h exposure, the cells were harvested and washed with PBS. Cell pellets were stored at -80° C. until assayed. Extracts were then prepared and AGT activity determined. The results were expressed as the percentage of the AGT activity present in cultures to which no drug was added.

wtAGT [2] = target: T1, wtAGT; test: BG inactivation of AGT in wtMGMT transduced K562 cells
human AGT mutant P140A = target: T3, human AGT mutant P140A (Homo sapiens, UniProt P16455, P140A); test: Inactivation of cellular AGT in CHO cells expressing mutant P140A (CHO-P140A); format: cell-based
T3 construct: expressed in transfected cells; host or cells: Chinese hamster ovary (CHO) cells
T3 sequence (P16455 1-207 P140A): T1 sequence (P16455 1-207) with P140A
Description: as §1, §2

human AGT mutant G156A = target: T4, human AGT mutant G156A (Homo sapiens, UniProt P16455, G156A); test: Inactivation of cellular AGT in CHO cells expressing mutant G156A (CHO-G156A); format: cell-based
T4 construct: expressed in transfected cells; host or cells: Chinese hamster ovary (CHO) cells
T4 sequence (P16455 1-207 G156A): T1 sequence (P16455 1-207) with G156A
Description: as §1, §2

ΔAGT (G156A) = target: T5, ΔAGT (G156A) (Homo sapiens, UniProt P16455, G156A); test: cell-based
T5 sequence (P16455 1-207 G156A): T1 sequence (P16455 1-207) with G156A

For Nc1nc(OCc2ccccc2)c2[nH]cnc2n1 [BG, O^6 -benzylguanine], the IC50 (wtAGT [1]) was less than 0.1 µM, the IC50 (AGT) was 0.5 µM and the IC50 (wtAGT [2]) was less than 0.1 µM. For the same compound, the IC50 (human AGT mutant P140A) was 15 µM, the IC50 (human AGT mutant G156A) was 30 µM and the IC50 (ΔAGT (G156A)) was roughly 18 µM.

Residue numbers refer to the chain shown, from its start.
